3 substances from USRE46170E1, “Insulin derivatives” (Novo Nordisk A/S, priority 2005, dated 2016) can be followed below.

This data set can be described thus: Hydrophobicity (hydrophobic index) relative to human insulin by isocratic RP-HPLC. The format is physicochemical. Conditions: LiChrosorb RP18 column, isocratic elution at 40° C., sodium phosphate buffer pH 7.3/acetonitrile. How it is done:
The elution was monitored by following the UV absorption of the eluate at 214 nm. Void time, t0, was found by injecting 0.1 mM sodium nitrate.
Regarding “N^εB29-3-[4′-(2-Carboxyethyl)biphenyl-4-yl]propionyl-γ-L-glutamyl desB30 insulin [Example 17]”, the “k′rel” value is given as 0.276. On to “N^εB29—[N—(HOOC(CH2)14CO—N-(carboxethyl)-CH2-meta C6H4CO] desB30 human insulin [Example 6]”, for which the “k′rel” value was 1.63.

With “N^εB29—[N—HOOC(CH2)14CO)—N-(carboxyethyl)-CH2-para-C6H4CO] desB30 human insulin [Example 1]”, the “k′rel” value is 1.19.
